Assay results as given in PubChem BioAssay AID651661 (Broad Institute, 2012).
Only a part is listed here, and it is no random draw. Active and inactive are the calls of the source.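 The calls were made as follows: active = mean inhibition of at least 50% after viability correction, with every replicate also passing that limit; inconclusive = mean reaches 50% but only one of two replicates passes; inactive = the rest.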

assay: blockers of EWS/Fli transcriptional output – A673 cells, NR0B1 luciferase, luminescence, MLPCN library, primary screen (AID 651661); settings: A673 NR0B1-luciferase reporter, viability-normalised; at 12.6 µM; stronger effect = higher value;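 also: firefly luciferase signal divided by Alamar Blue viability fluorescence both relative to DMSO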

Compound | inhibition
CN1CCC(Nc2ccc(F)c(Cl)c2)CC1 | inactive: -0.857%
NN(c1ccccc1)C1CCN(CCc2ccccc2)CC1 | inactive: -3.84%
O=C(O)C1(Nc2ccccc2)CCN(Cc2ccccc2)CC1 | inactive: -1.31%
CC(C)(C)OC(=O)N1CCC(Nc2ccccc2)CC1 | inactive: 5.5%
O=c1[nH]c2ccccc2n1C1CCN(C(c2cc3ccccc3o2)c2nnnn2C2CCCC2)CC1 (centres undefined) | inactive: -16.6%
CCCOc1ccc(C(=O)NCC2(N(C)C)CCCCC2)cc1 | inactive: 4.77%
COc1cccc(C(=O)N(c2cc(C)cc(C)c2)C2CCN(C(=O)OC(C)(C)C)CC2)c1 | inactive: 8.12%
COc1cc(OC)cc(C(=O)NCC2(N3CCOCC3)CCCCC2)c1 | inactive: 8.32%
COc1cccc(C(c2nnnn2C2CCCC2)N2CCC(n3c(=O)[nH]c4ccccc43)CC2)c1OC (centres undefined) | inactive: 20%
CN1CCC(Nc2ccc(Cl)cc2)CC1 | inactive: -4.68%
CCC(c1nnnn1C1CCCCC1)N1CCC(n2c(=O)[nH]c3ccccc32)CC1 (centres undefined) | inactive: 16.7%
COc1cccc(C(c2nnnn2C2CCCCC2)N2CCC(n3c(=O)[nH]c4ccccc43)CC2)c1OC (centres undefined) | inactive: 11.8%
CC(=O)N(c1ccccc1)C1CCNCC1 | inactive: 3.49%
COc1cc(OC)cc(C(=O)NCC2(N3CCCCC3)CCCCC2)c1 | inactive: 2.61%
O=c1[nH]c2ccccc2n1C1CCN(C(c2ccnc3ccccc23)c2nnnn2C2CCCCC2)CC1 (centres undefined) | inactive: 6.01%
Fc1ccccc1NC1CCN(Cc2ccccc2)CC1 | inactive: -3.04%
Cc1ccc(C(=O)NCC2(N3CCCCC3)CCCCC2)o1 | inactive: -3.68%
Cc1ccc(NC2(C#N)CCN(Cc3ccccc3)CC2)cc1 | inactive: -1.6%
COc1ccc(C(c2nnnn2C2CCCCC2)N2CCC(n3c(=O)[nH]c4ccccc43)CC2)cc1 (centres undefined) | inactive: -12.4%
CC(C)(C)n1nnnc1C(c1ccnc2ccccc12)N1CCC(n2c(=O)[nH]c3ccccc32)CC1 (centres undefined) | inactive: 10.3%

Compound | inhibition
Cc1ccccc1NC1(C#N)CCN(Cc2ccccc2)CC1 | inactive: 9.74%
CN(C)c1ccc(C(=O)NCC2(N3CCCCC3)CCCCC2)cc1 | inactive: 4.29%
Cn1c(=O)[nH]cc(N(CCCl)CCCl)c1=O | inactive: 2.1%
O=C(NCC1(N2CCCCC2)CCCCC1)c1ccco1 | inactive: 4.3%
N#Cc1ccc(C(=O)NCC2(N3CCCCC3)CCCCC2)cc1 | inactive: -9.37%
CC(C)(C)OC(=O)N1CCC(N(C(=O)c2ccccc2)c2ccc(Cl)cc2)CC1 | inactive: 4.82%
CN(C)C1(CNC(=O)c2cccc(C#N)c2)CCCCC1 | inactive: -0.692%
O=c1[nH]c2ccccc2n1C1CCN(C(c2ccccc2)c2nnnn2C2CCCC2)CC1 (centres undefined) | inactive: 4.28%
CCCN1CCC(Nc2cc(OC)cc(OC)c2)CC1 | inactive: 8.55%
Cc1cc(N(CCCl)CCCl)ccc1C=O | inactive: 12.4%
C/C(N)=N\P(=O)(Oc1ccccc1)Oc1ccccc1 | inactive: 4.16%
CC(C)(C)n1nnnc1C(c1cccc2ccccc12)N1CCC(n2c(=O)[nH]c3ccccc32)CC1 (centres undefined) | inactive: 20.4%
COc1cc(C(=O)NCC2(N3CCOCC3)CCCCC2)cc(OC)c1C | inactive: 1.05%
CCCCn1nnnc1C(c1ccccc1)N1CCC(n2c(=O)[nH]c3ccccc32)CC1 (centres undefined) | inactive: -9.04%
O=C(NCC1(N2CCOCC2)CCCCC1)c1cc(Br)ccc1Cl | inactive: 5.3%
O=c1[nH]c2ccccc2n1C1CCN(C(c2cccs2)c2nnnn2C2CCCCC2)CC1 (centres undefined) | inactive: -5.31%
O=c1[nH]c2ccccc2n1C1CCN(C(c2ccnc3ccccc23)c2nnnn2C2CCCC2)CC1 (centres undefined) | inactive: 15.9%
COc1ccc(C(=O)NCC2(N3CCOCC3)CCCCC2)cc1OC | inactive: 4.92%
CCOC(=O)N1CCC(Nc2ccc(C)cc2)CC1 | inactive: -7.83%
COc1cccc(C(c2nnnn2C(C)(C)C)N2CCC(n3c(=O)[nH]c4ccccc43)CC2)c1OC (centres undefined) | inactive: 7.59%

Compound | inhibition
O=c1[nH]c2ccccc2n1C1CCN(C(c2cccs2)c2nnnn2C2CCCC2)CC1 (centres undefined) | inactive: 7.15%
CCCCn1nnnc1C(c1cccc(OC)c1OC)N1CCC(n2c(=O)[nH]c3ccccc32)CC1 (centres undefined) | inactive: 1.6%
CC(C)c1ccc(NC2CCN(C(=O)OC(C)(C)C)CC2)cc1 | inactive: -79.5%
CN(C)c1cccc(C(=O)NCC2(N3CCCCC3)CCCCC2)c1 | inactive: 5.88%
COc1ccc(CN(CCCl)CCCl)cc1Cl | inactive: 0.227%
O=C(NCC1(N2CCOCC2)CCCCC1)c1cc(F)c(F)cc1Cl | inactive: 3.07%
CCC(c1nnnn1C(C)(C)C)N1CCC(n2c(=O)[nH]c3ccccc32)CC1 (centres undefined) | inactive: -8.27%
COc1cc(OC)c(C(=O)NCC2(N(C)C)CCCCC2)cc1OC | inactive: -2.24%
CCCCn1nnnc1C(c1ccnc2ccccc12)N1CCC(n2c(=O)[nH]c3ccccc32)CC1 (centres undefined) | inactive: -3.35%
CN1CCC(Nc2cccc(F)c2)CC1 | inactive: 10.2%
O=C(NCC1(N2CCCCC2)CCCCC1)c1cncc(Br)c1 | inactive: 3.75%
COc1ccc(C(c2nnnn2C2CCCC2)N2CCC(n3c(=O)[nH]c4ccccc43)CC2)cc1 (centres undefined) | inactive: 14.8%
CCCOc1ccc(C(=O)NCC2(N(C)C)CCCCC2)cc1OC | inactive: -7.08%
Cc1ccc(C(=O)NCC2(N(C)C)CCCCC2)o1 | inactive: 2.16%
O=C(NCC1(N2CCCCC2)CCCCC1)c1ccc(OC(F)F)cc1 | inactive: -0.244%
CC(C)(C)n1nnnc1C(c1ccccc1OC(F)(F)F)N1CCC(n2c(=O)[nH]c3ccccc32)CC1 (centres undefined) | inactive: -4.27%
O=c1[nH]c2ccccc2n1C1CCN(C(c2ccccc2OC(F)(F)F)c2nnnn2C2CCCC2)CC1 (centres undefined) | inactive: 3.53%
CCN1CCC(Nc2ccc(Cl)cc2)CC1 | inactive: 25.3%
O=C(NCC1(N2CCCCC2)CCCCC1)c1cccc([N+](=O)[O-])c1 | inactive: -19%
